Experimental data reported in publication PMC5571044 (Scientific Reports, 2017).

Amino acid sequences for entries named in this document (tags omitted). Residues count along the entry.
UniProt Q67296, 309-483 limits assumed: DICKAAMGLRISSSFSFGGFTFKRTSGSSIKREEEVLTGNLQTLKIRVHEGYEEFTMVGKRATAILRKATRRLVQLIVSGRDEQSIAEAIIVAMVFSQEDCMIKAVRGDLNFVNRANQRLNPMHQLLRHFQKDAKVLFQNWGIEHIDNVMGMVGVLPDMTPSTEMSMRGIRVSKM

How the values were obtained:
[1] = system: influenza virus A/H3N2/Udorn/72; test: microbe, parasite or virus in culture; conditions: H3N2, MDCK, 72 h, read-out: CPE EC50
[2] = biological target: influenza A PB2cap (Influenza A virus (A/Udorn/307/1972(H3N2)), UniProt Q67296); test: biochemical; type: binding, influenza A/Udorn/307/1972(H3N2)

O=C(O)[C@H]1C2CCC(CC2)[C@@H]1Nc1nc(-c2c[nH]c3ncc(F)cc23)ncc1F [VX-787] gave an EC50 [1] of 2.6 nM and a Kd [2] of 56.5 nM.
